Data from PubChem BioAssay AID639 (Emory University Molecular Libraries Screening Center, 2007).
The list shows a part of the results, in another mix than the full data. Active and inactive are the calls of the source. No stated cut-off is given here; in the data, active means activity above about 200%; inactive means the rest.

Amino acid sequences for entries named in this document (tags omitted).
UniProt P03372, whole entry: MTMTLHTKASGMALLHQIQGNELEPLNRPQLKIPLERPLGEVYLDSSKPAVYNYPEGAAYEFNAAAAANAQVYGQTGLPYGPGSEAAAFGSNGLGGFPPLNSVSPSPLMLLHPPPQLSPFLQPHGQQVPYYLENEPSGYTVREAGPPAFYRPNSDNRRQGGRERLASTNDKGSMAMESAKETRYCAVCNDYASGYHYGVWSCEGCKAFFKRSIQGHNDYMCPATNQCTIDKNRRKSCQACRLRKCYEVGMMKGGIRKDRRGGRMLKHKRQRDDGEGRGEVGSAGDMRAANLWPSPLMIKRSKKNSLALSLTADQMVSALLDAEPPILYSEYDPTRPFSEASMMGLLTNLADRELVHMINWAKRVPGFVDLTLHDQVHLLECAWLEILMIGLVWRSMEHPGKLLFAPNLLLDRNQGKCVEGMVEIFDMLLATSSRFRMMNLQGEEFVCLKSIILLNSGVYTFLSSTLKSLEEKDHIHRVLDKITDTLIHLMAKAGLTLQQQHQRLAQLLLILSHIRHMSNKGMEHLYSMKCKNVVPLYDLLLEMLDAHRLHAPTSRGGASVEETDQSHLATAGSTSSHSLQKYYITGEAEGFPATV

target: Estrogen receptor (Homo sapiens) (UniProt P03372); test: enhancers of ERα–SRC-1 coactivator binding, primary screen, biochemical, TR-FRET, ERα LBD, low estradiol (AID 639); settings: TR-FRET ERalpha-LBD/SRC-Cy5 coactivator binding, 2 h; at 25.6 µM; hits give high values; 100 = basal binding, no effect;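 further: binding measured in presence of low estradiol as agonist stimulus; 0% = peptide alone without receptor and 100% = receptor with peptide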

SMILES	coactivator binding (% of control)
O=C(NCC1(N2CCOCC2)CCCCC1)c1cc2ccccc2o1	inactive: 119%
O=C(OC1CN2CCC1CC2)C1c2ccccc2Oc2ccccc21 (centres undefined)	inactive: 119%
N#CC1(Nc2ccccc2)CCN(CCc2ccccc2)CC1	inactive: 106%
O=C(NCC1(N2CCOCC2)CCCCC1)c1cc(=O)[nH]c2ccccc12	inactive: 100%
N/C(=N\O)c1c(N)no[n+]1[O-]	inactive: 129%
c1ccc(CN2CCC(Nc3ccccc3)CC2)cc1	inactive: 108%
Fc1ccccc1NC1CCN(Cc2ccccc2)CC1	inactive: 137%
CCOc1ncccc1C(=O)NCC1(N2CCOCC2)CCCCC1	inactive: 107%
CCC(CO)(C(=O)OC1CN2CCC1CC2)c1ccccc1 (centres undefined)	inactive: 114%
